Values quoted from earlier work in paper PMC4596243 (Cancer chemotherapy and pharmacology, 2013).

Test system: intracerebral glioma
Conditions: mouse, in vivo; cited from earlier work

SMILES: CCN(CC)CCNC(=O)c1c(C)[nH]c(/C=C2\C(=O)Nc3ccc(F)cc32)c1C [sunitinib]
- effect when combined with TMZ: synergistic effect
